Target: P2X purinoceptor 1 (Rattus norvegicus, UniProt P47824)
Assay: Antagonist activity at rat P2X1 receptor

Sequences of proteins named here, by UniProt entry; tags and fusion partners are left off. A change or cut given only in a name is not applied to a line headed by its entry.
UniProt P47824: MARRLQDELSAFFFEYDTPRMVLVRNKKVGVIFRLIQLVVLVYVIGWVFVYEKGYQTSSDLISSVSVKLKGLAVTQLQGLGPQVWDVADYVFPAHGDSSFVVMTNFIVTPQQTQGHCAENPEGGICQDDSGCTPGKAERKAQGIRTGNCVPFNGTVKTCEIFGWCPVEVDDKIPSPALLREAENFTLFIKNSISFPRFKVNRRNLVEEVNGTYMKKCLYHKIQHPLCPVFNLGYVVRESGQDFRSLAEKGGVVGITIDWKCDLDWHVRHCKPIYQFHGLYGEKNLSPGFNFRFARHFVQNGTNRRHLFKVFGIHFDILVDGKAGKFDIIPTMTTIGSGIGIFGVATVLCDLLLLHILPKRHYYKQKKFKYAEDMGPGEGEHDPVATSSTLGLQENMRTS

## Nc1ncnc2c1ncn2[C@@H]1O[C@H](COP(=O)(O)OP(=O)(O)OP(=O)(O)O)[C@H]2OC3(O[C@H]21)C([N+](=O)[O-])=CC([N+](=O)[O-])C=C3[N+](=O)[O-] (stereo partly specified)
  IC50: 6 nM
